One test deals with PI3Kγ (Homo sapiens, UniProt P48736). The experiment in a line: PI3K isoform selectivity, chemiluminescence kinase assay (γ). It counts as biochemical. Conditions: isoform selectivity experiment.
The next test deals with PI3Kβ (Homo sapiens, UniProt P42338). Kind of test: PI3K isoform selectivity, chemiluminescence kinase assay (β). It counts as biochemical. To be noted: isoform selectivity experiment.

Chains of the proteins cited; added tags and fusions are not shown. Lines headed by an entry give the natural chain unless they say otherwise; changes in a name come on top.
UniProt P48736: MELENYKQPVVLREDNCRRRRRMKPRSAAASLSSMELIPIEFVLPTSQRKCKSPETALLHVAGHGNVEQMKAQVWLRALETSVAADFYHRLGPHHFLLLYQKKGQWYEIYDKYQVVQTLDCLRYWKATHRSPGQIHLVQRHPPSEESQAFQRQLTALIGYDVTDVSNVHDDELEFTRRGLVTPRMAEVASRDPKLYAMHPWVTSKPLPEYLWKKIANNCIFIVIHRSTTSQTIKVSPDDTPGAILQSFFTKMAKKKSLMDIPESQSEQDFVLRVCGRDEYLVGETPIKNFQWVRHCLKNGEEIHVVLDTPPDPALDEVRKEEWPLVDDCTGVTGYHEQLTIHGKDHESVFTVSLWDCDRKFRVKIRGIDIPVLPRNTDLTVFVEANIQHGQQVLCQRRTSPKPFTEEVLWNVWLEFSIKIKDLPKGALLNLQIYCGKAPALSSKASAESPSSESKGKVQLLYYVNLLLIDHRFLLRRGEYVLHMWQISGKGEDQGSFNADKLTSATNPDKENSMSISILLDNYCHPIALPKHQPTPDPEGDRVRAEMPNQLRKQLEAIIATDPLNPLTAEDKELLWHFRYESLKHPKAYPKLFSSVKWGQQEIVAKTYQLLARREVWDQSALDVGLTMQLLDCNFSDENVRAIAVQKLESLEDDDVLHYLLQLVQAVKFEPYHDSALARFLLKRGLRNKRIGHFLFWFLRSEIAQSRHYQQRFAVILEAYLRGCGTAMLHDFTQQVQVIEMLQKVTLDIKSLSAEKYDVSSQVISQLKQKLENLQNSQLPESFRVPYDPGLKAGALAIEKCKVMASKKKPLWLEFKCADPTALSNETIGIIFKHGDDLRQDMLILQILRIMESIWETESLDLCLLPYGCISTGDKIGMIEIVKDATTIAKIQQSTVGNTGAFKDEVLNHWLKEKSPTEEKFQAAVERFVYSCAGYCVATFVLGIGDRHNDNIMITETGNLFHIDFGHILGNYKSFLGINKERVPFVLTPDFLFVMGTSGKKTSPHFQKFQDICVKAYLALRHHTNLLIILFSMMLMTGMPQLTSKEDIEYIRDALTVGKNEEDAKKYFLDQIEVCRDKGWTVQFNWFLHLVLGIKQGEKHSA
UniProt P42338: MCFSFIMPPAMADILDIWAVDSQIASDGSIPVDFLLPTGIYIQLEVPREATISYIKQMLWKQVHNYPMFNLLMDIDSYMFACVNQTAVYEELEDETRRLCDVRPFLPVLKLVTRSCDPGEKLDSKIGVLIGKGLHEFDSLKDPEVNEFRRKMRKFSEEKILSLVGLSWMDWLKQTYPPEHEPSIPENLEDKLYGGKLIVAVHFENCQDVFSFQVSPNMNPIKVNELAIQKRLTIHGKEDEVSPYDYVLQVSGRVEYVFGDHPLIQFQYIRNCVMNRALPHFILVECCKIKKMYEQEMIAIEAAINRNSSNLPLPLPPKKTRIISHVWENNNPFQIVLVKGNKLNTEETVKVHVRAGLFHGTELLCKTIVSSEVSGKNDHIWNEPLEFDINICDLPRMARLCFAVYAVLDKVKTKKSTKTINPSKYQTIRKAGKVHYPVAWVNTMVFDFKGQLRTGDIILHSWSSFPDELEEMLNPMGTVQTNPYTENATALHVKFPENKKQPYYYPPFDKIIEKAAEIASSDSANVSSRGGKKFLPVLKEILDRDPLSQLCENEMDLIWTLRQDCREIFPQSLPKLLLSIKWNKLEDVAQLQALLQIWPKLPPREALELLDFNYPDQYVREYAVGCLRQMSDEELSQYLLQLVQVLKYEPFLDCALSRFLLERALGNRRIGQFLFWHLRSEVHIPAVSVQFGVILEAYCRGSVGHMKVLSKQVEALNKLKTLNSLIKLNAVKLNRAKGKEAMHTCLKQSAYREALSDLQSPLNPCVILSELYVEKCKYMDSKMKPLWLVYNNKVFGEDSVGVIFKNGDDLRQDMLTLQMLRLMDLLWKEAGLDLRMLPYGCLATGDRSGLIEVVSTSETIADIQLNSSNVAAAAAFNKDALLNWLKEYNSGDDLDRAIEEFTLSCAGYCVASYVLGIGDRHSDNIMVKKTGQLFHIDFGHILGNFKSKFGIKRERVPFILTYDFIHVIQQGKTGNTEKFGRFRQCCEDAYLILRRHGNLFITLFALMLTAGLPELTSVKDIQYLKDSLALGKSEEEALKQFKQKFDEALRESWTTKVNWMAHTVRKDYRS

For the compound `O=c1cc(N2CCOCC2)oc2c(-c3ccccc3)cccc12` [LY294002, reference compound], the values for the IC50 against PI3Kγ and at PI3Kβ were 3510 nM and 1530 nM, respectively.

The values are drawn from article PMC6928688, “Identification of Novel PI3Kδ Selective Inhibitors by SVM-Based Multistage Virtual Screening and Molecular Dynamics Simulations” (International Journal of Molecular Sciences, 2019).
